Data on 102 compounds can be found in PubChem BioAssay AID624467 (The Scripps Research Institute Molecular Screening Center, 2012).

Chains of the proteins cited; added tags and fusions are not shown. Lines headed by an entry give the natural chain unless they say otherwise; changes in a name come on top.
UniProt Q96RJ0: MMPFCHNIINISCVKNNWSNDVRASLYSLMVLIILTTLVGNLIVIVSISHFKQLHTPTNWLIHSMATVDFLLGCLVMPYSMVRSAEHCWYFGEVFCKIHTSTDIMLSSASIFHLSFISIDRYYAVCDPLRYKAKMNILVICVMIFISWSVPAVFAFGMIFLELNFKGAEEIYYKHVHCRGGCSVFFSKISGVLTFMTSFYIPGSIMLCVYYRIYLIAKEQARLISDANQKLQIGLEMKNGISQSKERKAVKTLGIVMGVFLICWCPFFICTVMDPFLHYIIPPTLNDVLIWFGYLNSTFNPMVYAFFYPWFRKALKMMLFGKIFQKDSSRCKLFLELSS

This is a selection; strong and weak results do not stand in their true shares. The source made the active and inactive calls.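 Rule for the calls: active = activation above the mean activation of all test compounds in the run plus 3 SD (cut at about 38% in these data); inactive = the rest.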

For the test, the target named is Trace amine-associated receptor 1 (Homo sapiens) (UniProt Q96RJ0). The experiment in a line: activators of TAAR1 calcium mobilization – Fluo-8 calcium fluorescence, CHO RD-HGA16 cells, primary screen (AID 624467). The following applies: CHO RD-HGA16 TAAR1, Fluo-8 calcium fluorescence; at 3 µM; active compounds read high; vehicle wells 0%, saturating PEA agonist 100%. In general terms: A change in cytosolic calcium serves as a functional read-out for many receptors and channels.
As for `COC(=O)C1(C)COP(=O)(N2CCCC2)OC1` (configuration not stated), the activation is inactive: 1.11%.

Regarding `COP1(=S)c2c(C)nn(CCC#N)c2N=C(c2ccc(F)cc2)N1C` (configuration not stated), the activation was inactive: 2.86%.

Turning to `O=C(O)C(=O)c1ccc(N(CCCl)CCCl)cc1`, the activation is inactive: 1.87%.

On to `O=C(Nc1ccncc1[N+](=O)[O-])c1ccc([N+](=O)[O-])cc1[N+](=O)[O-]`, for which the activation was inactive: 1.91%.

As to `O=C(COc1ccccc1)OC1CN2CCC1CC2` (configuration not stated), the activation was inactive: 8.28%.

For the compound `O=C(OC1CN2CCC1CC2)c1cccc([N+](=O)[O-])c1` (configuration not stated), the activation was inactive: 0.96%.

Take `CCOC(=O)c1ccc(NC(=O)C(C)(CCl)SC)cc1` (configuration not stated): the activation is inactive: 2.83%.

For `CCC(C)N(CC(C)C)C(=S)SC(NC(C)=O)C(Cl)(Cl)Cl` (configuration not stated), the activation is inactive: -0.56%.

As for `CCOC(=O)Nc1ccc([As](=O)(O)O)c(O)c1`, the activation was inactive: 0.52%.

Take `O=C(O)C(O)c1ccc(N(CCCl)CCCl)cc1` (configuration not stated): the activation is inactive: 5.63%.

Take `CC1CCNP(=O)(N(CCCl)CCCl)O1` (configuration not stated): the activation was inactive: 0.38%.

Regarding `COP(=O)(OC)N1CC1c1ccccc1` (configuration not stated), the activation is inactive: 16.5%.

Consider `Cc1cc(SC(NC(=O)c2ccccc2)C(Cl)(Cl)Cl)nc(C(C)C)n1` (configuration not stated), for which the activation was inactive: 1.21%.

For `CCCCOc1ccc(C(=O)NCC2(N3CCCCC3)CCCCC2)cc1OC`, the activation was inactive: 0.83%.

Take `CCOC(=O)Nc1cccc([As](=O)(O)O)c1`: the activation was inactive: -0.37%.

Consider `O=P(Nc1ccccn1)(c1cccc2ccccc12)c1cccc2ccccc12`, for which the activation was inactive: 17.3%.

Turning to `Cc1cc(SC(NC=O)C(Cl)(Cl)Cl)ncn1` (configuration not stated), the activation is inactive: 6.94%.

Consider `O=[N+]([O-])c1ccc(Nc2ccc(Oc3ccc([N+](=O)[O-])cc3[N+](=O)[O-])cc2)c([N+](=O)[O-])c1`, for which the activation is inactive: -1%.

Regarding `COc1cc(C(=O)NCC2(N3CCOCC3)CCCCC2)ccc1OCC(C)C`, the activation is inactive: 8.64%.

With `O=[N+]([O-])c1ccc(-c2cc([N+](=O)[O-])c(O)c([N+](=O)[O-])c2)cc1`, the activation is inactive: -0.52%.

On to `O=[As](O)(c1ccc(O)cc1)c1ccccc1O`, for which the activation was inactive: 5.94%.

`C[As](=O)(O)c1cccc(C(=O)O)c1`: the activation was inactive: 2.56%.

On to `[N-]=[N+]=NC1CCCCC1NC(=O)c1cc([N+](=O)[O-])cc([N+](=O)[O-])c1` (configuration not stated), for which the activation was inactive: 0.03%.

As for `Cc1ccc(OP(=O)(Nc2ccc([N+](=O)[O-])cn2)Oc2ccc(C)cc2)cc1`, the activation is inactive: -1.02%.

Regarding `Cc1ccc2nc3c(c(C)c2c1)CC(C(Cl)Cl)S3` (configuration not stated), the activation was inactive: 1.24%.

For the compound `ClCCSc1nnc(-c2cccnc2)o1`, the activation was inactive: 11.4%.

Turning to `CC(C)c1ccc(OP(=O)(Nc2ccccn2)Oc2ccccc2F)cc1` (configuration not stated), the activation was inactive: 10.1%.

With `COC(=O)C1(C)COP(=O)(N2CCCCCC2)OC1` (configuration not stated), the activation is inactive: 2.82%.

For `O=C(OC1CN2CCC1CC2)c1cccc2[nH]cnc12` (configuration not stated), the activation was inactive: 4.78%.

As to `CCN(CC)C(=S)SC(NC=O)C(Cl)(Cl)Cl` (configuration not stated), the activation was inactive: 8.53%.

In the case of `CC(C)NC(=O)NP(=O)(Oc1ccccc1)Oc1ccccc1`, the activation was inactive: 2.75%.

As to `Cc1c2c(nc3ccccc13)SC(C(Cl)Cl)C2` (configuration not stated), the activation is inactive: 22.6%.

For the compound `Cc1cc(=O)[nH]c(N[N+](=O)[O-])n1`, the activation was inactive: -0.71%.

Turning to `O=C(OC1CN2CCC1CC2)C12CC3CC(CC(C3)C1)C2` (configuration not stated), the activation was inactive: 16.9%.

On to `O=P1(N(CCCl)CCCl)Nc2ccccc2N1`, for which the activation was inactive: 0.68%.

Take `O=P1(N(CCCl)CCCl)OCCCN1CCCl` (configuration not stated): the activation was inactive: 1.12%.

`COc1cc(I)ccc1[As](=O)(O)O`: the activation is inactive: 3.77%.

`COc1ccc2nc(NP(=O)(c3ccccc3)c3ccccc3)sc2c1`: the activation was inactive: 8.66%.

On to `O=[N+]([O-])c1cc(Oc2ccc([N+](=O)[O-])cc2C(F)(F)F)cc([N+](=O)[O-])c1`, for which the activation was inactive: -1.08%.

Consider `COc1ccc(N/C(=N/P(=O)(N2CCOCC2)N2CCOCC2)N2CCOCC2)cc1`, for which the activation was inactive: 2.02%.

As for `O=C(OC1CN2CCC1CC2)c1ccc(Cl)cc1` (configuration not stated), the activation was inactive: 6.68%.

With `CS(=O)(=O)c1ccc(Cl)c(NC(=O)COC(=O)C(O)(c2ccccc2)c2ccccc2)c1`, the activation was inactive: 15.7%.

For `COc1cc(C(=O)NCC2(N3CCOCC3)CCCCC2)cc(Cl)c1OC(C)C`, the activation was inactive: 0.24%.

Regarding `O=[As](O)(O)c1cccnc1`, the activation is inactive: -0.16%.

Consider `O=[As](O)(c1cccc(O)c1)c1cccc(O)c1`, for which the activation is inactive: 1.12%.

Take `Cc1cccc(OCC(=O)OC2CN3CCC2CC3)c1` (configuration not stated): the activation was inactive: 0.92%.

On to `Nc1cccc2c([As](=O)(O)O)cccc12`, for which the activation was inactive: 13.3%.

Turning to `Cc1ccc(NCCc2c([N+](=O)[O-])cc([N+](=O)[O-])cc2[N+](=O)[O-])cc1`, the activation is inactive: -1.32%.

`CCCOP(=S)(Nc1nc(N)cc(=O)[nH]1)OCCC`: the activation was inactive: 0.02%.

On to `CCOP(=O)(Nc1cccc2ccccc12)OCC`, for which the activation was inactive: 5.55%.

For `COc1cc(C2NCCC3(OCCO3)C2(C)C)cc(OC)c1OC` (configuration not stated), the activation is inactive: -0.73%.

Turning to `O=P(Nc1nccs1)(Oc1ccccc1)Oc1ccccc1`, the activation was inactive: 4.7%.

Turning to `CCOP1(=S)c2c(C)nn(CCC#N)c2N=C(c2ccccc2F)N1C` (configuration not stated), the activation is inactive: 9.82%.

Consider `Nc1ccccc1[As](=O)(O)c1ccccc1`, for which the activation was inactive: 4.25%.

For the compound `O=C(O)COc1ccc([As](=O)(O)O)cc1[N+](=O)[O-]`, the activation is inactive: 0.71%.

In the case of `NC(=O)Nc1ccc([As](=O)(O)O)cc1`, the activation was inactive: 6.23%.

For the compound `CCOP1(=S)c2c(C)nn(CCC#N)c2N=C(c2ccc(F)cc2)N1C` (configuration not stated), the activation was inactive: -0.33%.

`CN(C(=O)Cc1ccccc1)[C@@H]1CC[C@]2(CCCO2)C[C@H]1N1CCCC1`: the activation was inactive: -0.19%.

On to `N#CCCN(C(=O)COC(=O)C(O)(c1ccccc1)c1ccccc1)c1ccc(F)cc1`, for which the activation is inactive: 8.78%.

As for `CN(C(=O)Cc1ccc(Cl)c(Cl)c1)[C@H]1CC[C@@]2(CCCO2)C[C@@H]1N1CCCC1`, the activation is inactive: -0.36%.

Turning to `CN(C)C(=O)c1cc([N+](=O)[O-])cc2c1-c1c(cc([N+](=O)[O-])cc1[N+](=O)[O-])C2=O`, the activation is inactive: 3.08%.

Turning to `O=[N+]([O-])c1ccc2c(c1)nnn2O`, the activation is inactive: 0.72%.

In the case of `CC1CCC(C(C)C)C(OP(=O)(Nc2ccccn2)c2ccccc2)C1` (configuration not stated), the activation is inactive: 9.7%.

With `Cc1ccc(C(=O)OC2CN3CCC2CC3)cc1` (configuration not stated), the activation is inactive: -1.78%.

On to `Cc1nn(-c2ccccc2)c2c1P(=O)(N1CCOCC1)N(C)C(c1ccccc1)=N2` (configuration not stated), for which the activation was inactive: 0.88%.

With `CN(C)C1(CNC(=O)c2ccc(S(C)(=O)=O)cc2)CCCCC1`, the activation was inactive: 0.7%.

As to `CCCC1OP(=O)(Nc2ccccc2)OCC1CC` (configuration not stated), the activation is inactive: -0.02%.

On to `O=C(/C=C/c1ccccc1)OC1CN2CCC1CC2` (configuration not stated), for which the activation is inactive: 3.28%.

For the compound `Cc1ccc(S(=O)(=O)N(CCCN)CCCc2c(C)nc(N)[nH]c2=O)cc1`, the activation is inactive: -0.17%.

For `O=P1(Nc2ncccn2)COc2ccccc2OC1`, the activation was inactive: 3.54%.

For `Nc1cccc([As](=O)(O)c2ccccc2)c1`, the activation is inactive: 2.09%.

On to `O=P1(Nc2ccc(Br)cn2)COc2ccccc2OC1`, for which the activation is inactive: 1.74%.

Consider `NS(=O)(=O)c1cccc(NC(=O)COC(=O)C(O)(c2ccccc2)c2ccccc2)c1`, for which the activation is inactive: 1.14%.

Take `O=[As](O)(c1cccs1)c1cccs1`: the activation is inactive: 4.02%.

For `Cc1ccc(OCC(=O)OC2CN3CCC2CC3)cc1` (configuration not stated), the activation was inactive: 7.5%.

`CCOP(=O)(NC(=NC(C)c1ccccc1)NC(C)c1ccccc1)OCC` (configuration not stated): the activation is inactive: 0.49%.

Turning to `O=P1(Nc2ccccn2)COc2ccccc2OC1`, the activation was inactive: 10.2%.

Regarding `CCC1=CC2Cc3nc4ccc(Cl)cc4c(N)c3C(C1)C2` (configuration not stated), the activation is inactive: 9.91%.

As for `CN(CCCl)Cc1cc(Cl)c(NC2=NCCN2)c(Cl)c1`, the activation was inactive: -0.64%.

Consider `CCOP(=O)(Nc1ccc(C)cn1)OCC`, for which the activation is inactive: 0.22%.

On to `CC(C)(C)C(=O)NC(Sc1ncccn1)C(Cl)(Cl)Cl` (configuration not stated), for which the activation is inactive: -0.32%.

Consider `O=P1(N(CCCl)CCCl)NCCC(C(F)(F)F)O1` (configuration not stated), for which the activation was inactive: -0.25%.

`Clc1n[nH]nc1-c1nn[nH][15n]1`: the activation was inactive: 9.28%.

In the case of `COc1ccccc1CNC(=O)COC(=O)C(O)(c1ccccc1)c1ccccc1`, the activation is inactive: 4.55%.

As for `CN(C(=O)Cc1ccc(Cl)c(Cl)c1)C1CCCC[C@@H]1N1CCCC1` (some centres not stated), the activation is inactive: 2.23%.

On to `CC(C)/C=N\N=C(\N)N[N+](=O)[O-]`, for which the activation was inactive: 4.17%.

In the case of `CN(C(=O)Cc1ccc(Cl)c(Cl)c1)[C@@H]1CCCC[C@H]1N1CCCC1`, the activation is inactive: 3.37%.

Consider `CC1(CBr)Cn2c(nc3ccccc3c2=O)S1` (configuration not stated), for which the activation is inactive: 10.8%.

On to `CC(C)C(=O)NC(Sc1ccccc1)C(Cl)(Cl)Cl` (configuration not stated), for which the activation is inactive: 3.08%.

As for `O=P(Nc1nccs1)(c1ccccc1)c1ccccc1`, the activation was inactive: 5.92%.

Consider `c1nnnn1CCn1cnnn1`, for which the activation was inactive: 10.3%.

With `O=P(Nc1ccccn1)(c1ccc(Br)cc1)c1ccc(Br)cc1`, the activation was inactive: 10.5%.

Take `CN(C)C1(CNC(=O)c2ccc(Cl)c(S(N)(=O)=O)c2)CCCCC1`: the activation was inactive: -0.22%.

In the case of `Nc1ccc(CCCCOc2ccccc2)cc1`, the activation is inactive: 6.96%.

On to `COc1ccc(N)c([N+](=O)[O-])c1[N+](=O)[O-]`, for which the activation was inactive: 7.45%.

As for `C[C@H]1OP(=O)(Oc2ccccc2)[C@H](O)[C@H](O)[C@H]1N=[N+]=[N-]` (some centres not stated), the activation is inactive: -0.9%.

Regarding `O=P(Nc1nc2ccccc2s1)(c1ccccc1)c1ccccc1`, the activation is inactive: 3.05%.

As to `O=[As](O)(c1ccccc1)c1ccc(O)cc1`, the activation is inactive: 0.76%.

In the case of `O=[N+]([O-])c1ncn(CCn2cnc([N+](=O)[O-])n2)n1`, the activation was inactive: 1.29%.

Turning to `CC(=O)NC(SC(=S)N(C)C)C(Cl)(Cl)Cl` (configuration not stated), the activation was inactive: 3.45%.

Take `O=C(OC1CN2CCC1CC2)c1cccc(Cl)c1` (configuration not stated): the activation is inactive: 10.3%.

For `Nc1ccc([As](=O)(O)c2ccc([N+](=O)[O-])cc2)cc1`, the activation was inactive: 3.47%.
